Values of other authors, collected in patent publication US20230204599A1, “TRIAGING METHOD USING CELL FREE NUCLEOSOME LEVELS” (Belgian Volition SRL (BE/BE), priority 2020, published 2023).

Test system: neutrophil cells
Details: cited from earlier work

Compound: C[C@@H](CN1CC(=O)NC(=O)C1)N1CC(=O)NC(=O)C1 [dexrazoxane]
- effect on NETosis: does not affect NETosis
